# Assay results published in US10039761B2, “Co-crystals and pharmaceutical compositions comprising the same” (Vertex Pharmaceuticals Incorporated, priority 2013, dated 2018).
# System: DU4475 breast cancer line
# Experiment: Doxorubicin or epirubicin combination in DU4475 cells
# Type: cell-based
# Conditions: drug in combination with Compound (2)
# Protocol: The cell-based experiments and assays were performed with either molecule but not always with both. Compounds (1) and (2) were generally very similar in those assays and experiments. Analysis of the combination experiments was performed using two methods: the Bliss Additivity model and the Mixtures Blend method to determine the degree of synergy, additivity, or antagonism. In the Bliss method, a matrix of Bliss scores was generated for each cell line and treatment, and a sum of the Bliss values over the range of combination concentrations tested was calculated. […] Larger average Bliss values indicate greater confidence in reporting synergy, and smaller scores indicate greater confidence in reporting antagonism. In the Mixtures Blend method combinants were added in a range of optimal ratios using design of experiment (DOE) software (DX-8 from STAT-EASE); the cells were irradiated with 2 Gy as required. Synergy was determined using statistical analysis of the data (ANOVA) to indicate linear (additivity) or statistically significant (p<0.1) non-linear (antagonism or synergy) mixes of the combinants.
# Combinations of Compound (2) and doxorubicin or epirubicin (DNA intercalator) were tested against breast cancer cell lines (Tables 17 and 18), with a comparison between wild-type and mutant lines being a focus of the study. […]
structure (smiles),measurement,value
COc1cccc2c1C(=O)c1c(O)c3c(c(O)c1C2=O)C[C@@](O)(C(=O)CO)C[C@@H]3O[C@H]1C[C@H](N)[C@@H](O)[C@H](C)O1 [Epirubicin],Average Bliss score,33.3
